In patent publication US20220017495A1, “CONJUGATES OF BIVALENT EVANS BLUE DYE DERIVATIVES AND METHODS OF USE” (THE UNITED STATES OF AMERICA, AS REPRESENTED BY THE …, priority 2019, published 2022):
Structures can show the parent of a compound that is named as a salt.

Chains of the proteins cited; added tags and fusions are not shown. Residues count along the entry.
UniProt P02768, 25-609: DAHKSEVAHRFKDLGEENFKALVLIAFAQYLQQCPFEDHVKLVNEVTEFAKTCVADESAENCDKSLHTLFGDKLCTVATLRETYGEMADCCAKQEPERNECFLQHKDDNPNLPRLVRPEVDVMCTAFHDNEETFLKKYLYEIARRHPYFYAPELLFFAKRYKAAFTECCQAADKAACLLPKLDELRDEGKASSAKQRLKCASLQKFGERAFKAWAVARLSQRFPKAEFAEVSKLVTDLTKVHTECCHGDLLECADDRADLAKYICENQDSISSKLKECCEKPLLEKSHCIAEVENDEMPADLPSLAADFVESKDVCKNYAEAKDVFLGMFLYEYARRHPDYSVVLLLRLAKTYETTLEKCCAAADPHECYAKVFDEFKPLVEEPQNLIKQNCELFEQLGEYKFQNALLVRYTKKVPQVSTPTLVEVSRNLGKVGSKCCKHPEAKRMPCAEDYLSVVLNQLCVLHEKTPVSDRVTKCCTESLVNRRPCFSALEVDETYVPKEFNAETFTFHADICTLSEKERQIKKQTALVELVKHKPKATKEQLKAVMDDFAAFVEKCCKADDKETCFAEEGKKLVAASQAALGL

Molecular target: human serum albumin (HSA) (Homo sapiens, UniProt P02768)
Assay: Biolayer interferometry (BLI) binding to biotinylated HSA
Details: Table 1, PBS pH 7.4
Protocol: In this study, we used the streptavidin conjugated biosensors (Pall Fort6Bio LLC, CA). We preincubated the biosensors with biotinylated HSA (Abeam Inc., Cambridge, Mass.) for 10 minutes. After removing the unbound biotinylated HSA, the biosensors were washed for 1 minute. After blocking the spare biosensor, we added EZ-Link™ Sulfo-NHS-Biotin (Thermo Fisher Scientific, Rockford, Ill.) to each well and then removed it and washed the wells.
Association of a given dilution of a compound with the albumin-derivatized biosensor was measured for 600 seconds and then in turn, dissociation of the compound from the albumin measured for another 600 seconds. Data was analyzed using the OCTET Data Analysis software 7.0.

Cc1cc(-c2ccc(N=Nc3ccc4c(S(=O)(=O)O)cc(S(=O)(=O)O)c(N)c4c3O)c(C)c2)ccc1N=Nc1ccc2c(S(=O)(=O)O)cc(S(=O)(=O)O)c(N)c2c1O [EB, tetrasodium salt of 6,6′-{(3,3′-dimethyl[1,1′-biphenyl]-4,4′-diyl)bis[diazene-2,1-diyl]}bis(4-amino-5-hydroxynaphthalene-1,3-disulfonate)]
Kd: 3.7 µM
